Values quoted from earlier work as cited in US20170299609A1, “TREATMENT OF AMYOTROPHIC LATERAL SCLEROSIS WITH SK CHANNEL ACTIVATORS” (Wright State University, priority 2016, published 2017).

Test system: humans with ALS
Settings: cited from earlier work

Q: For Nc1nc2ccc(OC(F)(F)F)cc2s1 [riluzole], which “extension of survival of humans with ALS, on average” value is on record?
A: about 3 months
